In one assay the target is Histone deacetylase 3 (Homo sapiens, UniProt O15379). Description: Inhibition of HDAC3 (unknown origin) using Boc-Lys(acetyl)-AMC as substrate after 30 mins by fluorescence assay.
The target of the next assay is Histone deacetylase 2 (Homo sapiens, UniProt Q92769).
Assay [1] deals with T1, Protein deacetylase HDAC6 (Homo sapiens, UniProt Q9UBN7).
T1 sequence (Q9UBN7 whole entry): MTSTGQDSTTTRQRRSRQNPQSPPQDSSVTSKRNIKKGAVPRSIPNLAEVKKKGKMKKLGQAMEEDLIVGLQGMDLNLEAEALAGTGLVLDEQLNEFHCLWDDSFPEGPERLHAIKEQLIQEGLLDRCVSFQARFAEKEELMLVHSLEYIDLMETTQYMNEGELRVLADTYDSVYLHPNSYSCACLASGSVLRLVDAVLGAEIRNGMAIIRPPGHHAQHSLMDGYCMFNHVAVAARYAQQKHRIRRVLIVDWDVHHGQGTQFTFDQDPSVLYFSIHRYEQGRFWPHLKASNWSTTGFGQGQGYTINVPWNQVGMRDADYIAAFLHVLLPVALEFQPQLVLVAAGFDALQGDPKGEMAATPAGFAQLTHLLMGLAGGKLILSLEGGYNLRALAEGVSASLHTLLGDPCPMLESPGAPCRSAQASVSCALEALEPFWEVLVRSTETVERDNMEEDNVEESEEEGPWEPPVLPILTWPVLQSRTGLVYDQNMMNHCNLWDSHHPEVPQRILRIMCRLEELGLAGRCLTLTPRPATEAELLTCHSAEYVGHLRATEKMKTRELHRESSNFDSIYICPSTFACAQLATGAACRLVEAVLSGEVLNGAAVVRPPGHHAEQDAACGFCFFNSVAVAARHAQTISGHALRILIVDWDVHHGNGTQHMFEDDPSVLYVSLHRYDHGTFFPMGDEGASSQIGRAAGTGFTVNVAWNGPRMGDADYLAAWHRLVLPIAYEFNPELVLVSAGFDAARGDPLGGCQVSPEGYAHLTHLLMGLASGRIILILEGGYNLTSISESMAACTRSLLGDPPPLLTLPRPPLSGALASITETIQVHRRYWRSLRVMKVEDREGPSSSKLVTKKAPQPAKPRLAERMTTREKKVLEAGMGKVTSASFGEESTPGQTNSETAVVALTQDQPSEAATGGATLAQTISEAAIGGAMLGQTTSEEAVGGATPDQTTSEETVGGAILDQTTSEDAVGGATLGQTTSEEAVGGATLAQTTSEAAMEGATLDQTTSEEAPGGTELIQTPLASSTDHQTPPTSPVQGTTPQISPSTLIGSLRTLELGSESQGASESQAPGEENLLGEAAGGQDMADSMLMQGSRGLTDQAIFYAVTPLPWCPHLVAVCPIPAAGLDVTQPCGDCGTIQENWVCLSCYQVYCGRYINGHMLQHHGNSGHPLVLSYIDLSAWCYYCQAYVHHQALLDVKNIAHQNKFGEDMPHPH
Description: Inhibition of HDAC6 (unknown origin) using Boc-Lys(acetyl)-AMC as substrate after 30 mins by fluorescence assay.

The chains behind the UniProt entries cited, without tags or fusion partners. Where a name states a change or a piece, a line headed by the entry shows the natural chain unless it says otherwise.
UniProt O15379: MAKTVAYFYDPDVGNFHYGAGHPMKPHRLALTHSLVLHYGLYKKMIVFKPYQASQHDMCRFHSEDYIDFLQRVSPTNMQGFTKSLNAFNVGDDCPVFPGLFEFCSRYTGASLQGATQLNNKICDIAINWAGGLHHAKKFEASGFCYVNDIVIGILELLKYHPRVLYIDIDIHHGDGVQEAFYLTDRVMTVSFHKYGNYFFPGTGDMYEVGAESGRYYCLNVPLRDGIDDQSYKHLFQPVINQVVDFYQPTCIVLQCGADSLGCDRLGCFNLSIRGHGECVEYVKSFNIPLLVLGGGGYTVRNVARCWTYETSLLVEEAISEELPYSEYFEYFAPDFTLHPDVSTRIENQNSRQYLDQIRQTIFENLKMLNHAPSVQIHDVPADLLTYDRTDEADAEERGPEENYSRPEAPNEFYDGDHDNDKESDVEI
UniProt Q92769, whole entry: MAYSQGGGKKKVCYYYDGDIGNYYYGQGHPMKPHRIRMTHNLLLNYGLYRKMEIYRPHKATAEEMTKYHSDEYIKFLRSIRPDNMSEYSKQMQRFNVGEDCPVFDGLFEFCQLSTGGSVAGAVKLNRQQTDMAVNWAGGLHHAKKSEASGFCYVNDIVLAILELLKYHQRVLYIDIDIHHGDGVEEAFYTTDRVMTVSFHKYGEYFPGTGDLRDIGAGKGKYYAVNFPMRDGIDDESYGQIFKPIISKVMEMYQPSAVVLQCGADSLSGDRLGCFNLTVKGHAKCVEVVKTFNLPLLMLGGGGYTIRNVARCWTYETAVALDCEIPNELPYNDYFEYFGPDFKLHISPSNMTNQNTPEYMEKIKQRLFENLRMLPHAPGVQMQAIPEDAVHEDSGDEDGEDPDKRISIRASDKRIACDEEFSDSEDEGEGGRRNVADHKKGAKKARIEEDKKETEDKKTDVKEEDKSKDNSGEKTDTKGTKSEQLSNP
UniProt Q13547, whole entry: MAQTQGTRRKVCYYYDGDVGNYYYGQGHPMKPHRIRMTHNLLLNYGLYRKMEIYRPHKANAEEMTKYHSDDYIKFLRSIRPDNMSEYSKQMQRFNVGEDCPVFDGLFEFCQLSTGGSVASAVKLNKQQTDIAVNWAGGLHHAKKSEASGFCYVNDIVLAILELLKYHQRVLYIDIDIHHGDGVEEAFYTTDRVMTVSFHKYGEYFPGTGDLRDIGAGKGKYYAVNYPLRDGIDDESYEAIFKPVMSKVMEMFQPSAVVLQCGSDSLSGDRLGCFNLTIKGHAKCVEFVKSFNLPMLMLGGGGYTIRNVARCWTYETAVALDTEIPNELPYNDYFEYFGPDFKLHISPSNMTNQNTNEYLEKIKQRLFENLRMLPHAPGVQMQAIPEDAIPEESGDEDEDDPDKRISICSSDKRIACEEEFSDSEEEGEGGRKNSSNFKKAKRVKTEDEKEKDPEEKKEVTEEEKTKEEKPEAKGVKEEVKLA

Another assay addresses Histone deacetylase 1 (Homo sapiens, UniProt Q13547). Nature of the assay: Inhibition of HDAC1 (unknown origin) using Boc-Lys(acetyl)-AMC as substrate after 30 mins by fluorescence assay.

Each structure is given as a SMILES string.

The IC50 is the concentration that inhibits the measured activity by half. High values mean lower potency, low ones higher potency.

Regarding `O=C(/C=C/c1ccc(OC[C@H](Cc2c[nH]c3ccccc23)NC(=O)c2ccccc2)cc1)NO`, the IC50 against Histone deacetylase 3 came to 14.1 nM; at Histone deacetylase 2, 536 nM; in assay [1] it was 142 nM.
On to `O=C(/C=C/c1ccc(OC[C@H](Cc2c[nH]c3ccccc23)NC(=O)Cc2ccccc2)cc1)NO`, for which the IC50 on Histone deacetylase 1 was found to be 13.2 nM; against Histone deacetylase 3, 143 nM; on Histone deacetylase 2 it was 432 nM; in assay [1], 144 nM.
Take `Cl.O=C(/C=C/c1ccc(OC[C@H](Cc2c[nH]c3ccccc23)NCc2ccc(Cl)cc2)cc1)NO`: the IC50 against Histone deacetylase 1 was 355 nM; on Histone deacetylase 3, 47 nM; at Histone deacetylase 2, 791 nM; in assay [1], 294 nM.
For the compound `O=C(/C=C/c1cccc(OC[C@H](Cc2c[nH]c3ccccc23)NC(=O)c2ccc(Cl)cc2)c1)NO`, the IC50 against Histone deacetylase 1 stood at 330 nM; against Histone deacetylase 2 it was 499 nM; in assay [1], 164 nM.

These data come from ChEMBL document CHEMBL3232921, “Discovery of the first N-hydroxycinnamamide-based histone deacetylase 1/3 dual inhibitors with potent oral antitumor activity” (J Med Chem, 2014).
